# Target: T1, GIPR-ECD (Homo sapiens, UniProt P48546)
# T1 construct: the x-ray crystal structure of these antibodies in complex with GIPR-ECD was determined
# T1 sequence (P48546 22-138 limits assumed): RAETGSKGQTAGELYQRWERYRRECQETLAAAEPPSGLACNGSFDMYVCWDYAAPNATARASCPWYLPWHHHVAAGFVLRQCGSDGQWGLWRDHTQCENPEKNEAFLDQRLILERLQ
# Assay: Binding epitope by x-ray crystal structure and structure-based descriptor (SBD) method
# Conditions: SBD method on crystal or cryo-EM structure of the complex
substance,measurement,value
Glucose-dependent insulinotropic polypeptide [GIP],residues in the GIPR-ECD epitope,"GLN30, ALA32, LEU35, TYR36, TRP39, MET67, TYR68, TRP71, TRP90, ARG101, ARG113, HIS115, GLN130, ARG131, LEU134, LEU137, and GLN138"

# Source: patent US20250163168A1, “NOVEL ANTIBODIES AND ANTIBODY CONJUGATES FOR THE TREATMENT OF METABOLIC DISORDERS” (PFIZER INC., priority 2023, published 2025)
